Patent US6025333A, “Treatment of CNS tumors with metalloprotease inhibitors” (Erziehungsdirektion of the Canton Zurich, priority 1995, dated 2000)

System: C6 cells
Experiment: C6 cell spreading on PLYS or CNS myelin with protease inhibitors
Type: cell-based, rat
Details: inhibitor 3.0 mM
Description: Rat C6, mouse NIH 3T3 and B16 cells were cultured in Dulbecco's modified Eagle's medium (DMEM) supplemented with 10% fetal calf serum (FCS), usually to maximally 70-80% confluency. Cells were harvested with a short trypsin treatment (0.1% in Ca^2+ /Mg^2+ -free Hank's medium for 90 seconds) stopped by addition of FCS in excess, collected by centrifugation. Cells were resuspended in either DMEM/FCS or defined serum-free medium (MEM) and used for experiments. Dissociated rat CNS glial cells were prepared starting from optic nerves of 6-7 days old Lewis rats as described in Section 6.1.1, supra and plated into poly-D-lysine (PLYS) coated wells (100 mm^2, 100 μl medium) at a density of 20,000 cells per well. The culture medium was an enriched L15 medium with 5% rat serum, penicillin and streptomycin. C6, 3T3 and B16 cells were added to 2 day old cultures at a concentration of 30,000 cells per well, incubated for two hours and fixed with warm 4% formalin in phosphate buffer. Inhibitory oligodendrocytes were identified by double labelling using the specific antibodies O1 and O4 (see Section 6.1.3, supra).
Myelin from rat spinal cord (CNS) or sciatic nerve (PNS) purified on a discontinuous sucrose gradient as described in Section 6.1.5., was dried overnight onto PLYS coated wells (20 μg protein/well of 100 mm^2 surface). Unbound membranes were removed by three washes with Ca^2+ /Mg^2+ -free Hank's solution. Myelin coated wells were immediately used in substrate testing assays by the addition of 9,000 cells (C6, 3T3, or B16) per cm^2. […] Experiments were scored at different time points using a phase contrast microscope equipped with a photocamera. Quantifications were done using a surface integration program; three arbitrary fields were photographed for each well at a magnitude of 80×, at least 25 cells per picture were measured. […] Results are expressed as μ^2 of projected cell surface, or as degree, which was calculated by subtracting from the projected surface value of a spreading cell, the surface value of a completely spheric cell.

Structure (SMILES): NCCCCCC(=O)O [6-amino-capronate]
- Spreading on: PLYS (% of control on PLYS) (150 minutes): 93 % of control on PLYS
- Spreading on: CNS (% of control on PLYS) (CNS myelin, 150 minutes): 100 % of control on PLYS
- Inhibition on CNS (%) (PLYS value minus CNS myelin value): 0%
